This note sets out measurements from PubChem BioAssay AID720506 (National Center for Advancing Translational Sciences (NCATS), 2013).

Chains of the proteins cited; added tags and fusions are not shown.
UniProt P35462, whole entry: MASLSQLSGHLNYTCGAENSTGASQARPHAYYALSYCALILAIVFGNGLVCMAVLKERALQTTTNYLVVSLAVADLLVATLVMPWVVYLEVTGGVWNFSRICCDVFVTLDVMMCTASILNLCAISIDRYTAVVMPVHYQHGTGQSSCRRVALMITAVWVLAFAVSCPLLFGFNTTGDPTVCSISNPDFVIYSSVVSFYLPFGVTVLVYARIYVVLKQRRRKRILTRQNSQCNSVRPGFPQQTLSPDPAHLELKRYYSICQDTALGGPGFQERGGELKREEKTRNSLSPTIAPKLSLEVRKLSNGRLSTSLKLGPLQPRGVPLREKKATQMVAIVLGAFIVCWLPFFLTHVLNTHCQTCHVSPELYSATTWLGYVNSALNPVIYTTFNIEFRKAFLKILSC

Each structure is given as a SMILES string. The list shows a part of the results, in another mix than the full data. Results filed as inconclusive are left out. Activity calls are given as the source filed them. The call rests on the fitted dose curve; in most records, active means well fitted activation curve with a large enough effect; inconclusive means small, poorly fitted or top-dose-only effect; inactive means flat fitted curve, though single readings scatter.

For this experiment, the target named is D(3) dopamine receptor (Homo sapiens) (UniProt P35462). The experiment is described as follows: qHTS of D3 Dopamine Receptor Agonist: D3 Dopamine Receptor B-arrestin Agonist Confirmatory Assay.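 Further: 100% = dopamine control response; nearly all actives have a fitted effect of over 70% in size.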 The following applies: DiscoveRx D3 beta-arrestin cells, luminescence, 90 min; at 76.9 µM (top of the series). The text has this:
D3 DARs represent a very important target for the treatment of several neuropsychiatric disorders. Indeed, one of the most promising therapeutic applications for the D3 DAR is in the area of addiction and related disorders. […] These findings have been observed with a number of addictive substances including cocaine, amphetamine, nicotine, and alcohol. […] Increased D3 DAR activity can thus lead to neuroprotective and neurorestorative actions in the CNS. […] This assay is used to confirm the activity of the identified D3 dopamine receptor agonist. Activation is the desired outcome for this assay. NIH Molecular Libraries Probe Production Centers Network [MLPCN] NIH Chemical Genomics Center [NCGC] MLPCN Grant: NS064831 Assay Submitter (PI): David Sibley
Freshly passaged DiscoveRx D3 cells are plated in 1536 well white, solid bottom plates at a density of 1500 cells/well in 3microl of complete media. After an overnight incubation at 37 degrees C in 5% CO2, cells are loaded with 23nl of test compound from the compound library (as well as dopamine controls) using a 1536 pintool and incubated at 37 degrees C for 90 minutes. Two microliters of DiscoveRx reagent is then added to all cells, and they are incubated for an additional 30 - 60 minutes at room temperature. Following incubation, luminescence is measured on a ViewLux CCD-based luminometer reader using a 20 sec exposure time.
In general terms: In qHTS, concentration-response curves come from the screen itself.
Consider `O=C(NCC1(N2CCCCC2)CCCCC1)c1ccc(Cl)s1`, for which the activation is inactive: -6.93%.
